Activity calls are given as the source filed them. The rule behind the calls is not given here.
Assays:
[1] = target: T1, Lysosomal acid glucosylceramidase (Homo sapiens) (UniProt P04062); conditions: Sf9, filed as positive allosteric modulator, dose 5-50 µM, time 1.0 hrs
T1 sequence (whole entry): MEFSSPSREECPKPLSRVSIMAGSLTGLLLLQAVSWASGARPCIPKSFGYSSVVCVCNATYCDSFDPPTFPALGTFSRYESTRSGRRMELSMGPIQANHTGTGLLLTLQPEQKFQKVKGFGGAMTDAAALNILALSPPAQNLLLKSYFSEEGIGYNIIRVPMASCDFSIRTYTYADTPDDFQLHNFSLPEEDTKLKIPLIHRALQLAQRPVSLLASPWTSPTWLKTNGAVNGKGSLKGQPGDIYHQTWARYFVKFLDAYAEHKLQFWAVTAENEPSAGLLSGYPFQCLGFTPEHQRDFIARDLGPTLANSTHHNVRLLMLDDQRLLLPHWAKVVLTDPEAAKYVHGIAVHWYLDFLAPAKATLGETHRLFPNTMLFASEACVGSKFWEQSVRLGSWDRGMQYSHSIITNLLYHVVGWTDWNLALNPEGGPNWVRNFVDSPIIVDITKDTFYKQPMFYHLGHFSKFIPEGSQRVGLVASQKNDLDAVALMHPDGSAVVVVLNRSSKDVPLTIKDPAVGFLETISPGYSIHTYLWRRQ

[2] = target: T1, Lysosomal acid glucosylceramidase (Homo sapiens); assay: Positive allosteric modulation of GCase in human Fibroblast cells using GBA1-FQ2 as substrate at 50 uM preincubated for 24 hrs followed by substrate addition and measured after 3 hrs by Hoechst 33342 staining based imaging analysis relative to control; format: cell-based; conditions: filed as positive allosteric modulator, time 27.0 hrs

Activity [1] | Emax [2] [%] | SMILES
Active |  | C=C(C)c1cccc([C@@H](N)CN(C)S(=O)(=O)c2cc(F)cc(F)c2)c1
 | 166 | CCCOc1cc(F)cc(S(=O)(=O)N(C)C[C@@H](N)c2cccc(N(C)C)c2)c1

Reference: ChEMBL document CHEMBL5523728, “Fragment-Based Discovery of a Series of Allosteric-Binding Site Modulators of β-Glucocerebrosidase” (J Med Chem, 2024)
